Assay [1] concerns the target Unmodified nucleosome core particle (X. laevis histone octamer on 147 bp Widom-601 DNA) (X. laevis). The experiment in a line: native gel or EMSA. For orientation: Mobility shift assays separate free from complexed probe on a gel.
Assay [2] has the same target. The experiment in a line: crystal structure.
Assay [3] deals with H4K16Q (acetyl mimic) nucleosome (X. laevis). Nature of the assay: native gel or EMSA.
In assay [4] the target is H4K16ac nucleosome (X. laevis | not stated). The experiment in a line: native gel or EMSA.

In turn, “Orc1 BAH L79I mutant (from UniProt P54784 1-214) (domain or fragment)” came in with a fold increase in affinity compared with the WT domain in assay [1] of 2.8 fold. In assay [2], this substance showed a stoichiometry N of 2. “Orc1 BAH Lid swap mutant (residues 60–63 NEAA replaced with Sir3 DNVT) (from UniProt P54784 1-214) (domain or fragment)” yielded a fold decrease in affinity compared with binding to unmodified nucleosome in assay [3] of 2 fold. For the substance “Sir3 D205Q with Orc1-swapped residues in the Lid of Loop 2 (from UniProt P06701 1-214) (domain or fragment)”, the fold difference in affinity compared with unmodified nucleosome in assay [4] stood at 1.7 fold. In assay [1], “Sir3 BAH D205N hypermorphic mutant (from UniProt P06701 1-214) (domain or fragment)” yielded a fold increase in affinity relative to H4K16ac nucleosomes of 3.7 fold.

A word on the stoichiometry N: it is the number of molecules, sites or subunits per partner or assembly.

The values above are taken from PMC6602975, “Structure and function of the Orc1 BAH-nucleosome complex” (2019).
